Here are results for one molecule from article PMC7700175, “(E)-1-(Furan-2-yl)-(substituted phenyl)prop-2-en-1-one Derivatives as Tyrosinase Inhibitors and Melanogenesis Inhibition: An In Vitro and In Silico Study” (Molecules, 2020).

Amino acid sequences for entries named in this document (tags omitted). Residues count along the entry.
UniProt C7FF04, 1-392: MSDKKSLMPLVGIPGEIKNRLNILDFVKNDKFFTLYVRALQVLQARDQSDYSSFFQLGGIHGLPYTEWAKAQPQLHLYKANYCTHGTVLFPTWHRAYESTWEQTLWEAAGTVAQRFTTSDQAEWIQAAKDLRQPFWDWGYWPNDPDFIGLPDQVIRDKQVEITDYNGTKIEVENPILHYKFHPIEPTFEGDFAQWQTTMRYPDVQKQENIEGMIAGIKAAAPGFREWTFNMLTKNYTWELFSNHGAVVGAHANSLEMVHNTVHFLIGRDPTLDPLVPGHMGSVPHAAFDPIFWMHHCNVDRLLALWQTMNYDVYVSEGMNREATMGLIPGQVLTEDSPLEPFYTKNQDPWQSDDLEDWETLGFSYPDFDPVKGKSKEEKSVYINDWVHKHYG

The test deals with T1, mushroom tyrosinase (Agaricus bisporus, UniProt C7FF04).
T1 construct: purchased Sigma-Aldrich
Description: biochemical. It counts as biochemical.

Entries after “also recorded” stand apart in the source; their conditions may differ.

In the case of `O=C(/C=C/c1ccc(O)cc1O)c1ccco1` [Compound 8, (E)-3-(2,4-Dihydroxyphenyl)-1-(furan-2-yl)prop-2-en-1-one], the inhibition type result is recorded as “mixed-type inhibition; also recorded: mixed inhibition type”.
